## Membrane permeability of cyclic peptides

Source: CycPeptMPDB (Li et al. 2023), which took these values from Townsend et al. 2020, doi:10.26434/chemrxiv.13335941.v1.

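Lipid, pH, incubation time, direction and concentration are not recorded in the data file. The list need not hold all peptides of the study. Peptides that the database sets to -10, its floor, are left out.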

PAMPA is the parallel artificial membrane permeability assay, which has no cells and reads passive diffusion. Permeability is given as log10 of P in cm/s; higher (less negative) is more permeable.

The entry for CC(C)C[C@@H]1NC(=O)[C@@H](C)N(C)C(=O)[C@@H]2CCCN2C(=O)[C@H](Cc2ccccc2)NC(=O)[C@@H](CC(C)C)N(C)C(=O)[C@H]2CCCN2C(=O)CN(Cc2ccccc2)C1=O lists PAMPA -5.76 (log10 cm/s).
The entry for CCCN1CC(=O)N(C)[C@H](CC(C)C)C(=O)N(C)[C@H](CC(C)C)C(=O)N2CCC[C@@H]2C(=O)N[C@@H](CC(C)C)C(=O)N[C@@H](Cc2ccccc2)C(=O)N2CCC[C@H]2C1=O lists PAMPA -5.57 (log10 cm/s).
The entry for CC(C)C[C@@H]1NC(=O)[C@@H]2CCCN2C(=O)[C@H](CC(C)C)NC(=O)CN(Cc2ccccc2)C(=O)[C@@H](C)N(C)C(=O)[C@H](Cc2ccccc2)NC1=O lists PAMPA -5.78 (log10 cm/s).
The entry for CC(C)C[C@@H]1NC(=O)[C@@H](CC(C)C)NC(=O)[C@H](C)N(C)C(=O)[C@H](Cc2ccccc2)NC(=O)CN(Cc2ccccc2)C(=O)[C@@H]2CCCN2C1=O lists PAMPA -5.35 (log10 cm/s).
The entry for CC(C)C[C@@H]1NC(=O)[C@H]2CCCN2C(=O)[C@@H](CC(C)C)NC(=O)[C@@H](CC(C)C)NC(=O)C[C@H](Cc2ccccc2)NC(=O)[C@H]2CCCN2C(=O)[C@H](Cc2ccccc2)NC1=O lists PAMPA -6.27 (log10 cm/s).
The entry for CC(C)C[C@H]1NC(=O)[C@H](C)NC(=O)[C@H](Cc2ccccc2)NC(=O)CN(Cc2ccccc2)C(=O)[C@H]2CCCN2C(=O)CN(Cc2ccccc2)C1=O lists PAMPA -6.01 (log10 cm/s).
The entry for CCCN1CC(=O)N[C@@H](CC(C)C)C(=O)N(Cc2ccccc2)CC(=O)N2CCC[C@@H]2C(=O)N[C@H](CC(C)C)C(=O)N[C@@H](Cc2ccccc2)C(=O)N2CCC[C@@H]2C1=O lists PAMPA -5.75 (log10 cm/s).
The entry for CC(C)C[C@@H]1C(=O)N2CCC[C@@H]2C(=O)N(C)[C@@H](CC(C)C)C(=O)N[C@@H](Cc2ccccc2)C(=O)N[C@H](C)C(=O)N[C@H](CC(C)C)C(=O)N1C lists PAMPA -6.25 (log10 cm/s).
The entry for CC(C)C[C@H]1NC(=O)[C@@H](C)NC(=O)[C@H](Cc2ccccc2)NC(=O)CN(Cc2ccccc2)C(=O)[C@H]2CCCN2C(=O)[C@@H](CC(C)C)NC1=O lists PAMPA -6.72 (log10 cm/s).
The entry for CC(C)C[C@@H]1C(=O)N[C@@H](Cc2ccccc2)C(=O)N2CCC[C@H]2C(=O)N(C)[C@H](C)C(=O)N[C@H](CC(C)C)C(=O)N(Cc2ccccc2)CC(=O)N2CCC[C@@H]2C(=O)N1C lists PAMPA -5.94 (log10 cm/s).
The entry for CCCN1CC(=O)N[C@H](CC(C)C)C(=O)N[C@H](CC(C)C)C(=O)N2CCC[C@H]2C(=O)N[C@H](CC(C)C)C(=O)N[C@@H](Cc2ccccc2)C(=O)N2CCC[C@@H]2C1=O lists PAMPA -6.56 (log10 cm/s).
The entry for CCCN1CC(=O)N[C@H](CC(C)C)C(=O)N[C@@H](CC(C)C)C(=O)N2CCC[C@@H]2C(=O)N(C)[C@@H](CC(C)C)C(=O)N[C@@H](Cc2ccccc2)C1=O lists PAMPA -4.80 (log10 cm/s).
The entry for CC(C)C[C@H]1C(=O)N(C)[C@@H](CC(C)C)C(=O)N2CCC[C@H]2C(=O)N(C)[C@@H](CC(C)C)C(=O)N[C@@H](Cc2ccccc2)C(=O)N[C@@H](Cc2ccccc2)CC(=O)N1C lists PAMPA -5.29 (log10 cm/s).
The entry for CC(C)C[C@H]1NC(=O)[C@@H](C)N(C)C(=O)[C@H](Cc2ccccc2)NC(=O)[C@@H](CC(C)C)NC(=O)[C@H]2CCCN2C(=O)[C@@H](CC(C)C)NC1=O lists PAMPA -5.23 (log10 cm/s).
The entry for CC(C)C[C@H]1NC(=O)[C@H](C)N(C)C(=O)[C@H]2CCCN2C(=O)[C@H](Cc2ccccc2)NC(=O)[C@H](CC(C)C)N(C)C(=O)[C@@H]2CCCN2C(=O)[C@H](CC(C)C)N(C)C1=O lists PAMPA -5.19 (log10 cm/s).
The entry for CC(C)C[C@H]1C(=O)N[C@@H](Cc2ccccc2)CC(=O)N2CCC[C@H]2C(=O)N(C)[C@@H](CC(C)C)C(=O)N[C@@H](Cc2ccccc2)C(=O)N2CCC[C@H]2C(=O)N[C@@H](C)C(=O)N1C lists PAMPA -5.78 (log10 cm/s).
The entry for CC(C)C[C@@H]1NC(=O)[C@@H]2CCCN2C(=O)C[C@H](Cc2ccccc2)NC(=O)[C@H](CC(C)C)N(C)C(=O)C[C@H](Cc2ccccc2)NC(=O)[C@H]2CCCN2C(=O)[C@H](Cc2ccccc2)NC1=O lists PAMPA -5.81 (log10 cm/s).
The entry for CC(C)C[C@@H]1NC(=O)C[C@H](Cc2ccccc2)NC(=O)[C@@H]2CCCN2C(=O)[C@H](Cc2ccccc2)NC(=O)CN(Cc2ccccc2)C(=O)[C@@H]2CCCN2C(=O)[C@H](CC(C)C)NC1=O lists PAMPA -5.77 (log10 cm/s).
The entry for CC(C)C[C@H]1C(=O)N[C@@H](Cc2ccccc2)CC(=O)N2CCC[C@H]2C(=O)N(C)[C@@H](CC(C)C)C(=O)N[C@@H](Cc2ccccc2)C(=O)N2CCC[C@H]2C(=O)N[C@H](C)C(=O)N1C lists PAMPA -5.49 (log10 cm/s).
The entry for CC(C)C[C@H]1NC(=O)[C@@H]2CCCN2C(=O)CN(Cc2ccccc2)C(=O)[C@H](CC(C)C)N(C)C(=O)C[C@H](Cc2ccccc2)NC(=O)[C@H]2CCCN2C(=O)[C@H](Cc2ccccc2)NC1=O lists PAMPA -5.55 (log10 cm/s).
The entry for CC(C)C[C@@H]1NC(=O)C[C@H](Cc2ccccc2)NC(=O)[C@H](Cc2ccccc2)NC(=O)[C@@H](CC(C)C)NC(=O)[C@@H]2CCCN2C(=O)[C@H](CC(C)C)N(C)C1=O lists PAMPA -6.17 (log10 cm/s).
The entry for CC(C)C[C@@H]1C(=O)N2CCC[C@H]2C(=O)N(C)[C@@H](CC(C)C)C(=O)N[C@@H](Cc2ccccc2)C(=O)N2CCC[C@H]2C(=O)N[C@H](C)C(=O)N(C)[C@@H](CC(C)C)C(=O)N1C lists PAMPA -5.20 (log10 cm/s).

The 3 highest values of PAMPA among the entries above:

{"smiles": "CCCN1CC(=O)N[C@H](CC(C)C)C(=O)N[C@@H](CC(C)C)C(=O)N2CCC[C@@H]2C(=O)N(C)[C@@H](CC(C)C)C(=O)N[C@@H](Cc2ccccc2)C1=O", "PAMPA (log10 cm/s)": "-4.80"}
{"smiles": "CC(C)C[C@H]1NC(=O)[C@H](C)N(C)C(=O)[C@H]2CCCN2C(=O)[C@H](Cc2ccccc2)NC(=O)[C@H](CC(C)C)N(C)C(=O)[C@@H]2CCCN2C(=O)[C@H](CC(C)C)N(C)C1=O", "PAMPA (log10 cm/s)": "-5.19"}
{"smiles": "CC(C)C[C@@H]1C(=O)N2CCC[C@H]2C(=O)N(C)[C@@H](CC(C)C)C(=O)N[C@@H](Cc2ccccc2)C(=O)N2CCC[C@H]2C(=O)N[C@H](C)C(=O)N(C)[C@@H](CC(C)C)C(=O)N1C", "PAMPA (log10 cm/s)": "-5.20"}